According to PubChem BioAssay AID571 (The Scripps Research Institute Molecular Screening Center, 2007):
This is a selection; strong and weak results do not stand in their true shares. Activity calls are given as the source filed them.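 How the source made its calls: active means inhibition above a set limit, the mean inhibition across every tested compound plus 3 SD (cut at about 29% in these data); inactive means the rest.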

Protein sequences, listed by entry. Tags and fused reporters are not part of them.
UniProt P28566, whole entry: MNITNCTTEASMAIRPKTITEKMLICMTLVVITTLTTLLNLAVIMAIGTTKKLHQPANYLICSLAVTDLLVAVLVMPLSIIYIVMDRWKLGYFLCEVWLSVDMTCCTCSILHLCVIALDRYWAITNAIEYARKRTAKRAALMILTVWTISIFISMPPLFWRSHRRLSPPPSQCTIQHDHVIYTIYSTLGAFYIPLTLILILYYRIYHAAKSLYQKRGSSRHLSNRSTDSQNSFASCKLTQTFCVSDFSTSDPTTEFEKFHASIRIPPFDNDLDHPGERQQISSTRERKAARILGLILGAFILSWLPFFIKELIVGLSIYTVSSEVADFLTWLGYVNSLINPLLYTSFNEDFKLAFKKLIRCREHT

biological target: 5-hydroxytryptamine receptor 1E (Homo sapiens) (UniProt P28566); assay: 5-HT1E receptor antagonists, primary screen, cell-based, HTS (AID 571); settings: CHO 5-HT1E Ga15 NFAT-bla reporter, FRET, antagonist; at 6 µM; hits give high values;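 further: signal is the 460 over 535 nm emission ratio of beta-lactamase substrate; 0% = agonist plus DMSO wells and 100% = wells without agonist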

SMILES	inhibition
N#CC1(Nc2ccccc2)CCN(CCc2ccccc2)CC1	inactive: -7.27%
O=C(OC1CN2CCC1CC2)C1c2ccccc2Oc2ccccc21 (configuration not stated)	inactive: -0.28%
COc1ccc(NC2CCN(CCc3ccccc3)CC2)c(OC)c1	inactive: 0.84%
Fc1ccccc1NC1CCN(Cc2ccccc2)CC1	inactive: 5.3%
CCC(CO)(C(=O)OC1CN2CCC1CC2)c1ccccc1 (configuration not stated)	inactive: 2.4%
CCOc1ncccc1C(=O)NCC1(N2CCOCC2)CCCCC1	inactive: 4.91%
N/C(=N\O)c1c(N)no[n+]1[O-]	inactive: -12.4%
